Test results taken from US4767764A, “Alkoxyalkyl and alkylmercaptoalkyl substituted bridged benzofuroisoquinolines having opioid antagonist and/or appetite-controlling properties” (E. I. Du Pont de Nemours and Company, priority 1986, dated 1988).

Amino acid sequences for entries named in this document (tags omitted). A change or cut given only in a name is not applied to a line headed by its entry.
UniProt P33534: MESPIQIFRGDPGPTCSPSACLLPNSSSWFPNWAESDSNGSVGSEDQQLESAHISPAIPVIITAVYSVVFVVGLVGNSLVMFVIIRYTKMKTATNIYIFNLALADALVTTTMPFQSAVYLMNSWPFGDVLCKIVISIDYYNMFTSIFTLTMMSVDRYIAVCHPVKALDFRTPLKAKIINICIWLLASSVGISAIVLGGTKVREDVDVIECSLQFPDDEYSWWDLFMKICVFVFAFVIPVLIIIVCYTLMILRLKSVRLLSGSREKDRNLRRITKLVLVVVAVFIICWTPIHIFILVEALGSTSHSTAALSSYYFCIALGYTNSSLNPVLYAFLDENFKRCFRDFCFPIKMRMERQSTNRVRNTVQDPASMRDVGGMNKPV
UniProt P42866, whole entry, looked up: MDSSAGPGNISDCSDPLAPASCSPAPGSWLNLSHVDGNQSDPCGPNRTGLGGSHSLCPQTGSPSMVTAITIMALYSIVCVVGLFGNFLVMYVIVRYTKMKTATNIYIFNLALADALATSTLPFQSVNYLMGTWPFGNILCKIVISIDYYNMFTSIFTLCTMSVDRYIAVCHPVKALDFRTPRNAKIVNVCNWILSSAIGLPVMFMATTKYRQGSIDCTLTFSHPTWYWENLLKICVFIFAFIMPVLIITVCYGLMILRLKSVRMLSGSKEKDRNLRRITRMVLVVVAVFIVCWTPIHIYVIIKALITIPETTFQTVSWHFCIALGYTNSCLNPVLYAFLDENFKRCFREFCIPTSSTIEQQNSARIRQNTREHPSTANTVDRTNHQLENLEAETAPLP

Columns and labels:
[1] = target: kappa opioid receptor (U-50,488H analgesia) (Mus musculus, UniProt P33534); test: antagonism of U-50,488H analgesia in PQW test (kappa antagonist potency); format: in vivo, mouse (male CF1); conditions: ratio of ED50 morphine / ED50 U-50,488H antagonism
[2] = target: mu receptor (Mus musculus, UniProt P42866); conditions: in vivo, sc
[3] = tested on: PQ-induced writhing in mice; test: phenylquinone writhing test (PQW), analgesic activity; format: in vivo, mouse (male CF1); conditions: s.c.; analgesic (opioid agonist) activity
[4] = tested on: feeding; conditions: versus morphine; cited from earlier work
[5] = tested on: kappa receptor; conditions: cited from earlier work

SMILES | kappa selectivity (morphine/U-50,488H antagonism) [1] | ED50 [2] | ED50, antagonism of PQ-induced writhing in mice [3] | stimulation of feeding [4] | kappa receptor activity/selectivity in words [5]
CO[C@]12CC[C@@]3(C[C@@H]1C(C)(C)O)[C@H]1Cc4ccc(O)c5c4[C@@]3(CCN1CC1CC1)[C@H]2O5 | 0.19 X | 0.006 mg/kg | > 81 mg/kg | – | –
CN(C(=O)Cc1ccc(Cl)c(Cl)c1)[C@@H]1CCCC[C@H]1N1CCCC1 (relative stereo) | – | – | – | more potent stimulators of feeding than the mu agonist morphine | –
COCC1CC2CCC13CN(CC1CC1)CCC31c3cccc(O)c3OC21 (centres unmarked) [Example 6, 3-Cyclopropylmethyl-5-methoxymethyl-1,2,3,4,5,6,7,7a-octahydro-4a,7-ethanobenzofuro[3,2-e]isoquinolin-9-ol] | 1.1 X | 0.01 mg/kg | – | – | –
Oc1cccc2c1OC1C3CCC4(CN(CC5CC5)CCC214)C(COCCCc1ccccc1)C3 (centres unmarked) [Example 7, 3-cyclopropylmethyl-5-(3-phenyl-n-propoxymethyl)-1,2,3,4,5,6,7,7a-octahydro-4a,7-ethanolbenzofuro[3,2-e]isoquinolin-9-ol] | 1.2 X | 0.13 mg/kg | – | – | –
CCC1C2Cc3ccc(O)cc3C1(CC)CCN2Cc1ccoc1 (centres unmarked) [MR 2266, reference compound] | 0.95 X | 0.21 mg/kg | – | – | relatively selective kappa antagonist
